In PubChem BioAssay (NCI):
The list shows a part of the results, in another mix than the full data.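 Plates (96-well) were seeded with cells, treated with compound at one concentration, and incubated for 48 hours before percent growth was determined.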 Activity calls are given as the source filed them. How the source made its calls: active means growth percent below 10; inactive means the rest.

These compounds were tested on MALME-3M melanoma (assay: NCI-60 one-dose screen, 48 h (100 = growth as untreated, 0 = no growth, -100 = all killed)). Settings: 10 µM.

With NC(=NCCN/C(N)=N/[N+](=O)[O-])N[N+](=O)[O-] as the compound, how does the growth read?
The growth was inactive: 127%.

Which growth does the source give for O=[N+]([O-])N(CCN(CC(Br)([N+](=O)[O-])[N+](=O)[O-])[N+](=O)[O-])CC(Br)([N+](=O)[O-])[N+](=O)[O-] here?
The growth was inactive: 89.9%.

How did the growth turn out when CN(C)Nc1c([N+](=O)[O-])cc([N+](=O)[O-])cc1[N+](=O)[O-] was run?
Its growth is inactive: 90%.

How did the growth turn out when O=[N+]([O-])OCCOc1ccc([N+](=O)[O-])cc1[N+](=O)[O-] was run?
The growth was inactive: 116%.

How did the growth turn out when O=[N+]([O-])c1cc([N+](=O)[O-])c(C(F)(F)F)c([N+](=O)[O-])c1O was run?
The growth was inactive: 93.7%.

For CCOC(=O)CSc1c(N)c(C)nn1C.O=[N+]([O-])c1cc([N+](=O)[O-])c(O)c([N+](=O)[O-])c1, which growth is on record?
Its growth is inactive: 101%.

For O=[N+]([O-])c1ccc(OP2(=O)COCCO2)cc1 (stereo not drawn), which growth is on record?
Its growth is inactive: 140%.

For CCN(C)CC.O=[N+]([O-])c1cc([N+](=O)[O-])c(O)c([N+](=O)[O-])c1, which growth is on record?
The growth was inactive: 93.8%.

OCCSCCO was tested. Which growth did it give?
The growth was inactive: 90.5%.

Which growth does the source give for CC(C)N1CCN(CCOC(=O)C(O)(c2ccccc2)c2ccccc2)CC1 here?
The growth was inactive: 108%.

Which growth does the source give for O=[N+]([O-])c1ccc(Oc2c([N+](=O)[O-])cc([N+](=O)[O-])cc2[N+](=O)[O-])cc1 here?
Its growth is inactive: 104%.

Which growth does the source give for O=C(Cl)c1c([N+](=O)[O-])cc([N+](=O)[O-])cc1[N+](=O)[O-] here?
The growth was inactive: 91.2%.

How did the growth turn out when O=[N+]([O-])c1cc([N+](=O)[O-])c(Nc2ccc(Cl)cc2)c([N+](=O)[O-])c1 was run?
Its growth is inactive: 56%.
